This note sets out measurements from paper PMC13073873 (International Journal of Molecular Sciences, 2026).

Protein sequences, listed by entry. Tags and fused reporters are not part of them.
UniProt P50406, whole entry: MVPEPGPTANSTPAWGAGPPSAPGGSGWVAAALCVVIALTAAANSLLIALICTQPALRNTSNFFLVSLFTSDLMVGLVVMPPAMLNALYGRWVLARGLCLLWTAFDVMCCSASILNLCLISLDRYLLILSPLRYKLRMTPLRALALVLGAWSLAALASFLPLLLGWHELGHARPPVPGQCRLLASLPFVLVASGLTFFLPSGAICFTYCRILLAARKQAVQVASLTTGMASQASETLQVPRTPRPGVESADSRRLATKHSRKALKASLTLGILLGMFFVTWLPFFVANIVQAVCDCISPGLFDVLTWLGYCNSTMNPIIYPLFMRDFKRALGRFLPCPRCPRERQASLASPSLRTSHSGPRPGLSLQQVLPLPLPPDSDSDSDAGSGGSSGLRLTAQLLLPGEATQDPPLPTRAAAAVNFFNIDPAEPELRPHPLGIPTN

The test concerns the target T1, human 5-HT6R (Homo sapiens, UniProt P50406).
T1 construct: host or cells: CHO-K1
Description: 5-HT6R radioligand binding assay. The conditions noted are these: [3H]-LSD, CHO-K1 membranes; mean ± SD of two technical replicates.

Compound `C#CCN1CCN(CCCOc2ccc3c(ccn3S(=O)(=O)c3ccc(C(=O)NNCCC)cc3)c2)CC1` [FRB56] came in with a Ki of 30.7 ± 6.76 µM.
